One may read the IC50 as the concentration that inhibits the measured activity by half.

From patent US8791267B2, “Biaryl PDE4 inhibitors for treating inflammatory, cardiovascular and CNS disorders” (Decode Genetics EHF, priority 2007, dated 2014) come the findings set out here.

This experiment concerns sephadex bead stimulated LTE4 production in whole human blood (eosinophil activation). Type of experiment: cell-based. Particulars: read-out: IC50 in ex-vivo LTE4 assay.

Consider `COc1ccc(Cc2ccc(C(=O)N(C)C)nc2)c(F)c1-c1cccc(Cl)c1` [P-382, 5-(3′-Chloro-2-fluoro-6-methoxy-biphenyl-3-ylmethyl)-pyridine-2-carboxylic acid dimethylamide], for which the half-maximal inhibitory concentration (IC50) was less than 1000 nM.
